According to US20100069443A1, “COMPOUND WITH BENZAMIDE SKELETON HAVING CYCLOOXYGENASE-1 (COX-1)-SELECTIVE INHIBITORY ACTIVITY” (National University Corporation Okayama University, priority 2006, published 2010):
Like-named read-outs stand apart in the source and are kept apart here.

Nc1ccc(NC(=O)c2ccc(C(F)(F)F)cc2)nc1 [Compound 1]
Rapid decrease of body weight, changes in coats, caudal necrosis (1 g/kg intraperitoneally, 3 mice, observed for 10 days): not observed

Nc1ccc(C(=O)Nc2ccc(C(F)(F)F)cn2)cc1 [Compound 14]
Rapid decrease of body weight, changes in coats, caudal necrosis (300 mg/kg intraperitoneally, 5 mice, observed for 14 days): not observed
